Shown are actives, neighbours in structure and some others; about 3.6% of the full set was active somewhere.
PLK1 PBD block = qHTS for Inhibitors of PLK1-PDB (polo-like kinase 1 - polo-box domain): Primary Screen; actives 2.8% (n = 360,000); Plk1 PBD binding of FITC phosphopeptide, fluorescence polarization; Serine/threonine-protein kinase PLK1 (Homo sapiens), P53350; AID 720504, 2013; Potency, µM, for inactives: max response, negative = inhibition, actives largely listed as inhibitors; note: potency is the fitted concentration of half-maximal effect; series mostly up to about 57 µM; % is set by controls: 0 for no effect and ±100 for the full control effect; nearly all actives have a fitted effect of over 65% in size
Rango dissoc inh = qHTS Assay for Inhibitors of RanGTP induced Rango (Ran-regulated importin-beta cargo) - Importin beta complex dissociation | Biochemical FRET Rango-importin beta, RanGTP-induced dissociation | Potency, µM (titrated, usually from 46.1 µM), for the others: at the top dose activity change, negative = inhibition | actives 0.071% (n = 340,000); calls by dose curve; note: potency is the fitted concentration of half-maximal effect; % of control where 0% means no effect; nearly all actives have a fitted effect of over 45% in size
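Two FRET readings bracket the reaction: one 5 min after compound meets Rango–importin beta, another 45 min after RanGTP-RCC1 (0.6 uM Ran, 0.2 uM RCC1, 2 mM GTP) is added. Only the second defines inhibition.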
PI5P4Ka inh = qHTS for Inhibitors of phosphatidylinositol 5-phosphate 4-kinase (PI5P4K); PI5P4Kalpha enzyme, ADP-Glo luminescence, 60 min; hits give low values; max response, %; actives 1.2% (n = 330,000); active = max response of -50% or lower; inconclusive = between -30% and -50%; inactive = -30% or higher; note: value at the top dose of about 77 µM; % is set by controls: 0 for no effect and ±100 for the full control effect
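Human PI5P4Kalpha with substrate in 0.038 M HEPES pH 7.4, 0.28 mM EGTA, 0.1% CHAPS, 5% DMSO; reaction started with 5 microM ATP (final), 60 min at room temperature. ADP formed read by ADP-Glo luminescence.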
KAT2A inh = qHTS Assay for Inhibitors of GCN5L2. actives 0.21% (n = 390,000). Potency, µM (highest dose often 58.9 µM), for inactives: top-dose activity change, negative = inhibition, actives largely listed as inhibitors. GCN5L2 HAT assay, ThioGlo1 CoA-SH fluorescence. Histone acetyltransferase KAT2A (Homo sapiens), Q92830; note: potency is the fitted concentration of half-maximal effect; % is set by controls: 0 for no effect and ±100 for the full control effect
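Compounds, pin-transferred from DMSO stocks, meet 20nM GCN5L2 for 15 min before the reaction begins with H3(1-25) peptide (75uM) and acetyl-CoA (70uM). Thiol-reactive ThioGlo1 reports CoA release over 20 min at room temperature.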
Rango complex inh = qHTS Assay for Inhibitors of Rango (Ran-regulated importin-beta cargo) - Importin beta complex formation. Importin subunit beta-1 (Homo sapiens), Q14974. Rango CFP/YFP FRET sensor + importin beta, 45 min. Potency, µM (titrated, usually from 92.2 µM), for inactives: at the top dose inhibition of complex formation. actives 0.031% (n = 340,000). AID 540263, 2011; calls by dose curve;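 note: potency is the fitted concentration of half-maximal effect; 0% = DMSO wells and 100% = buffer wells lacking importin beta; nearly all actives have a fitted effect of over 15% in size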
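FRET biosensor (snurportin 1 IBB flanked by EYFP and cerulean), 50 nM, with compound 5 min, then 0.125 microM importin beta in PBS, 1 mM DTT, 0.02% Tween-20, 0.1% BSA. CFP/YFP ratio read after 45 min at room temperature; pre-read flags interference.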
VDR inhibitor = Inhibitors of the vitamin D receptor (VDR): qHTS | Vitamin D3 receptor (Homo sapiens), P11473 | VDR-SRC2-3 peptide fluorescence polarization, 2 h | Potency, µM, for the others: max response, negative = inhibition, actives largely listed as inhibitors | actives 0.93% (n = 400,000); note: potency is the fitted concentration of half-maximal effect; % is set by controls: 0 for no effect and ±100 for the full control effect
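Compounds are added to VDR with labelled SRC2-3 coactivator peptide and held 2 h at room temperature. Inhibition of the VDR–peptide interaction is then read as a change in fluorescence polarization.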
* hit, by the source's call; ? = inconclusive; nt = no result; ! = repeats disagree. Unless noted, calls come from the whole dose curve; as a rule, active = well fitted curve in the direction sought with a large enough effect; inconclusive = small, poorly fitted or top-dose-only effect, or another doubt; inactive = no such curve, though single readings can be large; an effect the other way counts as inactive or inconclusive.

Sequences of proteins named here, by UniProt entry; tags and fusion partners are left off.
Serine/threonine-protein kinase PLK1 (Homo sapiens), P53350, UniProt P53350, whole entry, looked up: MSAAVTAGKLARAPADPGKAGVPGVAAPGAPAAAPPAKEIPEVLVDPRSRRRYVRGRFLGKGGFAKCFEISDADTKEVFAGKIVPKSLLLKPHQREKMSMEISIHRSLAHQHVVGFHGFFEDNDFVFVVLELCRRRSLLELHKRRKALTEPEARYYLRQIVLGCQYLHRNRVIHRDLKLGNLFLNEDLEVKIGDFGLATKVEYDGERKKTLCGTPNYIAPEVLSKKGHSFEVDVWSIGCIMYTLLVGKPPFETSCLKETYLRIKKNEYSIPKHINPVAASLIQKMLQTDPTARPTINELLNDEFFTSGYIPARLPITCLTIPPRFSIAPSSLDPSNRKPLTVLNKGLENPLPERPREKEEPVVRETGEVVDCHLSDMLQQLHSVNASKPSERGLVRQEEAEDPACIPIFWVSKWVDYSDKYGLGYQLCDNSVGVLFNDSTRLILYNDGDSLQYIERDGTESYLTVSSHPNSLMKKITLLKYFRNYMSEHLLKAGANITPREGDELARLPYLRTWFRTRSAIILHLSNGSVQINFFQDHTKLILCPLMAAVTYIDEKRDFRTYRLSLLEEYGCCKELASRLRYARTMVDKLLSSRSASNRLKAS
Histone acetyltransferase KAT2A (Homo sapiens), Q92830, UniProt Q92830, whole entry, looked up: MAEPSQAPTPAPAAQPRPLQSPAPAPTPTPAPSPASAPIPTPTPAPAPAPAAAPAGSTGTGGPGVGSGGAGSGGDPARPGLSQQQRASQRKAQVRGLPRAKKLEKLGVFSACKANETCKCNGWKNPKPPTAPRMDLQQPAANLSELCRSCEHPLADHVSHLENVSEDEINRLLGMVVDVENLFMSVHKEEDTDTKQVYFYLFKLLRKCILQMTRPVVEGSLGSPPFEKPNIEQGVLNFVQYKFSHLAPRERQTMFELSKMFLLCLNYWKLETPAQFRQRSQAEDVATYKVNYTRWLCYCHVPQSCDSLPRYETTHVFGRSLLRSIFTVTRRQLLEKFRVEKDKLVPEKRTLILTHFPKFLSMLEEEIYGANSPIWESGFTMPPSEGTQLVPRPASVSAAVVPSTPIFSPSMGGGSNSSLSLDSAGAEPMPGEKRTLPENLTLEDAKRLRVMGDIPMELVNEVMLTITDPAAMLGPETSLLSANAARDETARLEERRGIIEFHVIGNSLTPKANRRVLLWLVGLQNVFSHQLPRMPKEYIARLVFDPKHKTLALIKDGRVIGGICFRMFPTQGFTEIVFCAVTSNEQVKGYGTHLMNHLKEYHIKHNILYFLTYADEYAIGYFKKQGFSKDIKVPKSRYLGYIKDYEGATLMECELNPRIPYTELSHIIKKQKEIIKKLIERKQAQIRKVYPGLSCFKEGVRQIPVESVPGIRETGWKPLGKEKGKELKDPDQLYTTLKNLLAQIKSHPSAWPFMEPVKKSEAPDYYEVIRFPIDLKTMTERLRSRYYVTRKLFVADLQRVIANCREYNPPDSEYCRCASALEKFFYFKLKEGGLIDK
Importin subunit beta-1 (Homo sapiens), Q14974, UniProt Q14974, whole entry, looked up: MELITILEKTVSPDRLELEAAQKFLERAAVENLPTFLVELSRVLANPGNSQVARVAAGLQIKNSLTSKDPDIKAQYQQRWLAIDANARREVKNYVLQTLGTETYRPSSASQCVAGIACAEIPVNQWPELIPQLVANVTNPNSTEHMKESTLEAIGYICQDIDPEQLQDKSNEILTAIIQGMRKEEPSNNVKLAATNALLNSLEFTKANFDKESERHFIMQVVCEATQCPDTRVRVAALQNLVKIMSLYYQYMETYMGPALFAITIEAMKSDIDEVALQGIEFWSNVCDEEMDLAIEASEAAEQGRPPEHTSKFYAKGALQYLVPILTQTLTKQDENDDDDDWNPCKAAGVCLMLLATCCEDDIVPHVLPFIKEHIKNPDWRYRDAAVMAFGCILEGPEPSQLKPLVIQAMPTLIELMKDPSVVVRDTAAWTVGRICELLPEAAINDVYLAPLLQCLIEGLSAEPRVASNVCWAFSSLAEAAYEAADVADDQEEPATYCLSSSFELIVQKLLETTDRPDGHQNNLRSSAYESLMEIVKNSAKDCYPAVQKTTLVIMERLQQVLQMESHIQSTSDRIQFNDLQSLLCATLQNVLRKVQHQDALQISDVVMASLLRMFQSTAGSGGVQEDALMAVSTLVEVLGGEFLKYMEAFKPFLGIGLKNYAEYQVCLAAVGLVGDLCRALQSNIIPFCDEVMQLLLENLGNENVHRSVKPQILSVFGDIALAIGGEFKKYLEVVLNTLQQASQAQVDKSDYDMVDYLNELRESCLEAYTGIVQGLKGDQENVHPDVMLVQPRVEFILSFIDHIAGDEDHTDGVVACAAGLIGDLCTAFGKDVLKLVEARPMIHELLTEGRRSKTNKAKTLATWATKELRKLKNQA

SMILES	PLK1 PBD block	Rango dissoc inh	PI5P4Ka inh	KAT2A inh	Rango complex inh	VDR inhibitor
S=c1nc(-c2ccccc2)n(-c2ccccc2)[nH]1	-11%	1%	1	11%	-3%	-2%
Nc1nc(=S)n(-c2ccccc2)[nH]1	24µM*	-8%	5	?	0%	-12%
COc1cc(C2C(=O)N(C3CCCCC3)CC(=O)N2Cc2ccc(C)cc2)ccc1OC(C)C (stereo not drawn)	nt	nt	nt	-5%	nt	13%
CCC(NC(C)C)C(O)c1ccc(O)c(O)c1 (stereo not drawn)	-12%	-8%	-3	-4%	3%	50µM*!
Cc1ccc(S(=O)(=O)N2CCN=C2SCc2ccccc2)cc1	30µM*	-17%	1	-10%	-3%	-26%
Cc1cccc(NCc2nnc3n2CCCCC3)c1C	nt	nt	nt	-22%	nt	15%
O=C(COc1cccc(Br)c1)N/N=C1\CCSC1	21µM*	-12%	-16	2%	-1%	?
O=C(COc1cccc(Br)c1)N/N=C1\CCCc2ccccc21	-12%	17%	-6	4%	0%	-5%
Cn1ccc2c([N+](=O)[O-])cccc2c1=O	30µM*	-7%	-15	-15%	0%	-24%
C=CCn1ccc2c([N+](=O)[O-])cccc2c1=O	-12%	11%	-5	-3%	5%	-7%
Cc1nnc(N(Cc2ccco2)C(=O)c2cccc(C#N)c2)s1	30µM*	6%	-8	-14%	-6%	2%
COc1cc(/C=C2\SC(N)=NC2=O)cc(Cl)c1O	26%	?	-76*	-20%	?	-3%
COc1cc(/C=C2\SC(N)=NC2=O)ccc1OCC(=O)Nc1ccccc1C	-4%	6%	-10	-20%	3%	?
CSCC[C@H](NC(=O)[C@H](CC(C)C)N1CCC(NC(=O)[C@@H](NC(=O)[C@H](Cc2ccccc2)NC(=O)[C@H](CO)NC(=O)[C@H](CC(=O)O)NC(=O)[C@@H](N)CCCCN)C(C)C)C1=O)C(N)=O (stereo partly drawn)	nt	nt	nt	1%	nt	-5%
CC(=O)Oc1ccc2oc(-c3ccccc3)c(C(N)=O)c2c1	27µM*	-13%	-21	7%	-3%	?
COc1cc(C/C=C/c2ccccc2)c(OC)cc1O	nt	nt	nt	9%	nt	50µM*
COC(=O)N/N=C\c1ccc(OC/C=C/c2ccccc2)c(OC)c1	-5%	11%	-2	-4%	-2%	-7%
O=C(NCc1ccccc1)[C@]1(C(F)(F)F)C[C@H](CCCO)CCCO1	nt	nt	nt	nt	nt	-9%
O=C1NN(c2ccccc2)C(=O)/C1=C/c1coc2ccccc2c1=O	?	?	-64*	-5%	?	40µM*
O=C1NN(c2ccccc2)C(=O)/C1=C\c1coc2ccc(O)cc2c1=O	?	-12%	-68*	-2%	-4%	22µM*
O=C(O)/C=C/c1coc2ccccc2c1=O	-15%	-6%	-10	2%	0%	-10%
Cc1cc2c(n1-c1ccc(C(=O)NCCc3ccc(Cl)cc3)cc1)CCC(C)C2 (stereo not drawn)	nt	nt	nt	-1%	nt	-1%
COc1ccc(C2=C(C)C(N3CCC(C(=O)Nc4cc(C)ccc4C)CC3)=NS2(=O)=O)cc1	nt	nt	nt	-12%	nt	8%
Cc1ccc(N2CC(NC(=O)C(=O)c3c[nH]c4ccccc34)CC2=O)cc1 (stereo not drawn)	nt	nt	nt	-10%	nt	-14%
Cc1nn(C)c2c1c(-c1ccccc1)cc(=O)n2Cc1ccc(F)cc1	nt	nt	nt	-8%	nt	-6%
CCc1ccc(NC(=O)CC2C(=O)N(c3cccc(OC)c3)C(=O)N2C2CCCC2)cc1 (stereo not drawn)	nt	nt	nt	-4%	nt	-9%
CCCCC(=O)N(c1ccc(C(=O)O)cc1)c1nc(-c2ccc(Cl)cc2)c(CC)s1	27µM*	6%	-4	-4%	0%	-18%
O=C(Oc1ccc(N2C(=O)CCC2=O)cc1)c1ccccc1Cl	-3%	1%	-9	1%	10%	-7%
Cc1cc(OC(=O)c2ccccc2Cl)cc(=O)n1C	27µM*	0%	7	-20%	-4%	11%
O=c1c2c(O)cc(O)cc2oc2c(O)ccc(O[C@H]3O[C@@H](CO)[C@H](O)[C@@H](O)[C@@H]3O)c12	-10%	21%	-56*	-5%	-5%	-14%
O=c1c(OC2OC(CO)C(O)C(O)C2O)c(-c2ccc(O)c(O)c2)oc2cc(O)cc(O)c12 (stereo not drawn)	3%	-20%	-4	-2%	13%	9%
O=C(c1ccc(Br)cc1)N1CCC(C(=O)N2CCN(c3ccccc3)CC2)CC1	5%	-10%	7	-20%	2%	8%
O=C1CN(c2ccccc2)C(=S)N1C(=O)c1ccc(Br)cc1	24µM*	33%	-27	-4%	1%	?
N#Cc1ccc(/C=C2\CCCCn3c2nc2cc(C(=O)O)ccc2c3=O)cc1	-6%	-9%	-53*	-3%	1%	6%
O=C(O)c1ccc2c(=O)n3c(nc2c1)/C(=C/c1ccc(Cl)cc1Cl)CC3	27µM*	-5%	-14	-11%	1%	19%
O=C(O)c1ccc2c(=O)n3c(nc2c1)/C(=C/c1cccc(Cl)c1Cl)CC3	0%	2%	-29	3%	-4%	11%
O=S(=O)(NCCN1CCOCC1)c1ccc(Cl)c(Cl)c1	-16%	-3%	4	-4%	0%	-8%
O=S(=O)(NCCCN1CCOCC1)c1ccc(Cl)s1	8.4µM*	-12%	-26	-8%	-1%	?
O=S(=O)(NCCN1CCOCC1)c1ccc(F)c(Cl)c1	3.4µM*	-3%	?	-27%	3%	?
O=C(NCCCN1CCN(c2ccc(F)cc2)CC1)Nc1ccccc1Cl	nt	nt	nt	20%	nt	-6%
COc1ccc(C(=O)Nc2nnc(SCc3cc(=O)n4cccc(C)c4n3)s2)cc1	nt	nt	nt	7%	nt	19%
CCCCCCCCCCCCCCCC[n+]1cccc(C(=O)N(CC)CC)c1	?	?	-73*!	0%	73µM*!	17%
O=C(O)c1ccc(/C=N/NC(=O)c2ccc(CN3c4cccc5cccc(c45)S3(=O)=O)cc2)cc1	34µM*	6%	-54*	-29%	2%	-2%

Complete entries from above. Order of values: PLK1 PBD block, Rango dissoc inh, PI5P4Ka inh, KAT2A inh, Rango complex inh, VDR inhibitor
COc1cc(C/C=C/c2ccccc2)c(OC)cc1O is listed as nt, nt, nt, 9%, nt, 50µM*
COc1ccc(C(=O)Nc2nnc(SCc3cc(=O)n4cccc(C)c4n3)s2)cc1 is listed as nt, nt, nt, 7%, nt, 19%
Cc1ccc(S(=O)(=O)N2CCN=C2SCc2ccccc2)cc1 is listed as 30µM*, -17%, 1, -10%, -3%, -26%
O=C(COc1cccc(Br)c1)N/N=C1\CCCc2ccccc21 is listed as -12%, 17%, -6, 4%, 0%, -5%
O=C(O)/C=C/c1coc2ccccc2c1=O is listed as -15%, -6%, -10, 2%, 0%, -10%
